Common to all, as to conditions: Oocyte
For experiment [1], the target named is GABA-A receptor; alpha-2/beta-3/gamma-2 (Homo sapiens) (UniProt P18507+P28472+P47869). As to the kind of experiment: Activation of human GABAA alpha-2-beta-3-gamma-2L receptor expressed in Xenopus oocytes assessed as modulation of GABA-induced current by measuring ratio of I/Imax current by two-electrode voltage-clamp method. Background: Two-electrode voltage clamp is typically applied to oocytes expressing channels or transporters.

Chains of the proteins cited; added tags and fusions are not shown. Lines headed by an entry give the natural chain unless they say otherwise; changes in a name come on top.
UniProt P18507: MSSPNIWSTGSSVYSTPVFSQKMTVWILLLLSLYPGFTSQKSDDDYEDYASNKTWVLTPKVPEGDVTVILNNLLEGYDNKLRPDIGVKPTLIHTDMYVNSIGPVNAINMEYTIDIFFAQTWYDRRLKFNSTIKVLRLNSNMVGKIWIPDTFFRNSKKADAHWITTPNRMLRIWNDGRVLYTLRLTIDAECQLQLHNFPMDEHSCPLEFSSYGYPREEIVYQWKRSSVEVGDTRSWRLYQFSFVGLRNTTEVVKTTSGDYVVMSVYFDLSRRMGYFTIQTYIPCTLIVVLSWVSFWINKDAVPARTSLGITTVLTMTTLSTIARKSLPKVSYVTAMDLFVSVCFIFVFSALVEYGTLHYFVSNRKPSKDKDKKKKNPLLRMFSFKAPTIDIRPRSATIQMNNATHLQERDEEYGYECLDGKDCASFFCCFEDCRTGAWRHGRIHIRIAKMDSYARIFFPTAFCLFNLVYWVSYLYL
UniProt P28472: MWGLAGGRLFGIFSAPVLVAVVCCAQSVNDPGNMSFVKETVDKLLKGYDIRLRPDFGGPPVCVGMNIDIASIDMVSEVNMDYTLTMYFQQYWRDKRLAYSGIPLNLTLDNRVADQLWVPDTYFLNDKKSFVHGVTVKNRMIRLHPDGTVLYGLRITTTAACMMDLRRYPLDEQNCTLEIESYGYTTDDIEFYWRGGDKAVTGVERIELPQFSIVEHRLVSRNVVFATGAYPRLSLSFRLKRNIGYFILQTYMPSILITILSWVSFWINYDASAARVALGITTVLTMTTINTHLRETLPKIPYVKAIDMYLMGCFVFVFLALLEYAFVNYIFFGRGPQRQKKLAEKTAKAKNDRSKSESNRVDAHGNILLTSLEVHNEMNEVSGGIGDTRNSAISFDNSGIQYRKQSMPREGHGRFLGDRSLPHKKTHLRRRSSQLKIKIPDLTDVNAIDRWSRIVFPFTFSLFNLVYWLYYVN
UniProt P47869: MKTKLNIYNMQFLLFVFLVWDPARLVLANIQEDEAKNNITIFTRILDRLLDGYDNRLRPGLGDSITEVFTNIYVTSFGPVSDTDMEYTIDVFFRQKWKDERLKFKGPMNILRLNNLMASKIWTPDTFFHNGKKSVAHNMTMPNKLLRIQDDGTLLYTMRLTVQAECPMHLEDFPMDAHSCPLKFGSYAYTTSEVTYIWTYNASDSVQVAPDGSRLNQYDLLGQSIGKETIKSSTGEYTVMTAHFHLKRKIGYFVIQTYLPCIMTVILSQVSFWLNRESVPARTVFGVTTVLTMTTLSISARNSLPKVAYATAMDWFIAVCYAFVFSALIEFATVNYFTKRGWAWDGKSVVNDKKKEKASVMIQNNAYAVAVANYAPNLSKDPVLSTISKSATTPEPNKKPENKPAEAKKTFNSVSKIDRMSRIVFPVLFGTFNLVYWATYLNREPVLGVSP
UniProt P36544, whole entry: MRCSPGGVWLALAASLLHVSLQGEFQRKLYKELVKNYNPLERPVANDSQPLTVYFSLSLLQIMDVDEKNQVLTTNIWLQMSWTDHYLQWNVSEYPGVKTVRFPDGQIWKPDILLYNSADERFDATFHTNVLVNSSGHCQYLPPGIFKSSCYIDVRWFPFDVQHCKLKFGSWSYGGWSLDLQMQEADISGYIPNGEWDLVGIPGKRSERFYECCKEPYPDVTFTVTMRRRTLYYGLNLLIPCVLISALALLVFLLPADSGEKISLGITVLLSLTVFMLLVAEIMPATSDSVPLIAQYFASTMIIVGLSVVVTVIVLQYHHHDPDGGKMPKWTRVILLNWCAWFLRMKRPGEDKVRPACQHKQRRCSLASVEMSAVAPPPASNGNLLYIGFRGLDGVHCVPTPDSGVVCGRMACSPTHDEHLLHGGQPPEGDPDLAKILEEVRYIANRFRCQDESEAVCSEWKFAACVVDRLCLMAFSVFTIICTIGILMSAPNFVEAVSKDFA

Experiment [2] relates to Neuronal acetylcholine receptor alpha3/beta4 (Rattus norvegicus). As to the kind of experiment: Activation of rat nAChR alpha-3-beta-4 expressed in Xenopus oocytes assessed as modulation of nicotine-induced current by measuring ratio of I/Imax current by two-electrode voltage-clamp method.
Experiment [3] addresses Neuronal acetylcholine receptor subunit alpha-7 (Homo sapiens, UniProt P36544). As to the kind of experiment: Activation of human alpha-7 nAChR expressed in Xenopus oocytes assessed as modulation of nicotine-induced current by measuring ratio of I/Imax current by two-electrode voltage-clamp method. The class given is cell-based. The essentials:
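Oocytes injected with 0.005–50 ng mRNA per subunit (α4β2 and α3β4 at 1:1; α1β1γδ at 1:1:1:1; α7 and 5-HT3A single). Two-electrode voltage clamp at −70 mV, 3–14 days post-injection. Ca²⁺-free Ringer's with BaCl₂ replacing Ca²⁺ (pH 7.4) to limit Ca²⁺-activated Cl⁻ currents. Rapid linear-array application. Current expressed as I/I_max; concentration–effect data fit to a four-parameter logistic. For α7, agonist was fixed at EC₅.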

The structures appear in SMILES notation. Active and inactive are the calls of the source. No cut-off for these calls is given here.

With `Cc1cc(/C(=C/Nc2ccc(Cl)cc2)C(=O)Nc2ccc(Cl)cc2)on1` [AVL-3288], the Ratio in experiment [1] came to 0.14; in experiment [3] it was 0.6. Besides, in experiment [2], the result was inactive.

For the origin of these results see ChEMBL document CHEMBL1142221, “Nootropic alpha7 nicotinic receptor allosteric modulator derived from GABAA receptor modulators” (Proc Natl Acad Sci U S A, 2007).
